Source: patent EP4356928A1, “NUCLEOSIDE DIPHOSPHATE OR DIPHOSPHONATE PRODRUGS, OR NUCLEOSIDE ANALOGUE DIPHOSPHATE OR DIPHOSPHONATE PRODRUGS” (Universität Hamburg, priority 2022, dated 2024)

Test system: CD4^+ T-cell (CEM)
Assay: Cytotoxicity: inhibition of CD4+ T-cell (CEM) proliferation
Settings: ratio between cell toxicity (CC50) and EC50 CEM/TK-
Description: In addition, a selectivity index (SI) was determined. The selectivity index is the ratio between cell toxicity and […], the ratio between cell toxicity (see Table 4) and EC50 CEM/TK^- (see right column of Table 3).
Table 4: Cytotoxicity (CC50 [µM]) and selectivity index (SI) of tested prodrug compounds.

For Cc1cn([C@H]2C[C@H](F)[C@@H](CO)O2)c(=O)[nH]c1=O [FLT, alovudine, reference compound], the “Selectivity index (SI)” value was greater than 1.
